Measured values published in patent US6989435B2, “Compounds and methods to inhibit or augment an inflammatory response” (Cambridge University Technical Services Ltd., priority 1997, dated 2006).

What was measured:
[1] = tested on: chemokine-induced THP-1 migration (MCP-1, MIP1α, IL8, SDF1α); assay: Trans-well THP-1 migration assay, across the chemokines tested; assay type: cell-based, human
Protocol: To determine whether an agent inhibits a chemokine-induced activity, such as macrophage recruitment, varying amounts of the agent are mixed with cells in the presence of a known chemoattractant. […] Chemokine (such as MCP-1, MIP1α, IL8 or SDF-1α), at a concentration known to cause significant migration of THP-1 cells in the trans-well migration assay, is placed in the lower compartment (FIG. 1). […] After incubation, the cells are gently removed from the top of the filter with a pipette, 20 μl of 20 mM EDTA in simple PBS is added into each top well, and incubated for 20 minutes at 4° C. The filter is carefully flushed with media using a gentle flow, and removed. […] The media is carefully aspirated from each well, and the converted dye is solubilized by 20 μl of DMSO. Absorbance of converted dye is measured at a wavelength of 595 nm using an ELISA plate reader. The number of migrated cells in each well is then determined by interpolation of the standard curve (see also Imai et al., J. Biol. Chem., 272, 15036 (1997)). […] The framed filter was aligned with the holes in the corner of the filter frame and placed over the wells. Five×10^4 THP-1 cells in 25 μl of RPMI-1640 culture media were added to the upper compartment. […] Absorbance of converted dye was measured at a wavelength of 595 nm using an ELISA plate reader. […]

[2] = target: T1, Duffy Antigen Receptor for Chemokines (DARC) (Homo sapiens, UniProt Q16570); assay: DARC binding: competition with 125I-labeled MCP-1 on red blood cells
T1 sequence (Q16570 1-336): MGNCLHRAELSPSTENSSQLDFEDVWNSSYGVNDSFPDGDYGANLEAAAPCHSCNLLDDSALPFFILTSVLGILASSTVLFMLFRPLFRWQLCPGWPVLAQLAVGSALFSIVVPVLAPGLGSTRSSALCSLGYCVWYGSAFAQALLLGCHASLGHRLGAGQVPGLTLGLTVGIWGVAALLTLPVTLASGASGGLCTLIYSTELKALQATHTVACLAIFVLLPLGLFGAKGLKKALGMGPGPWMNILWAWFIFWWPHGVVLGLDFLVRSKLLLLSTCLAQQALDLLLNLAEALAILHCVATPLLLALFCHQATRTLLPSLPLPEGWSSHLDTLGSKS

IC50 ([1]; MIP1α, IL8, SDF1α, read-out: ED50s for chemokines other than MCP-1): ~1 µM | DUFFY SELECTIVITY ([2]; Table 7, estimated ka for binding to red blood cells divided by average inhibitory ED50 versus each of the chemokines): 24.81 | DARC specificity ratio / Duffy selectivity ([2]; estimated ka for association with DARC divided by the ED50 for biological activity): 10
SMILES: CC(C)[C@H](NC(=O)[C@@H](N)Cc1c[nH]c2ccccc12)C(=O)N[C@@H](CCC(N)=O)C(=O)O [WVQ]
CC SPECIFICITY ([1]; Table 7, average inhibitory ED50 versus SDF1 and IL8 divided by average inhibitory ED50 versus MCP-1 and MIP1α): 1.1
